The subject of one experiment is TF-1. Kind of experiment: TF-1 cell proliferation experiment (CellTiter Glo). The format is cell-based. As to conditions: Homo sapiens; TF-1 cells, 72 hours; read-out: TF-1 (μM), proliferation inhibition. (In general: Cellular ATP, detected with luciferase, serves as a proxy for viable cell number.)
For a further experiment, the system named is HEL92.1.7. Kind of experiment: HEL92.1.7 cell proliferation experiment (Cell Titer-Glo). The experiment is classed as cell-based. As to conditions: Homo sapiens, HEL 92.1.7; HEL92.1.7 cells, 72 hours.
The next experiment has as its target JAK2 (Homo sapiens, UniProt O60674). Kind of experiment: Kinase activity test on JAK2 (Caliper EZ Reader conversion rate).

Amino acid sequences for entries named in this document (tags omitted). A change or cut given only in a name is not applied to a line headed by its entry.
UniProt O60674: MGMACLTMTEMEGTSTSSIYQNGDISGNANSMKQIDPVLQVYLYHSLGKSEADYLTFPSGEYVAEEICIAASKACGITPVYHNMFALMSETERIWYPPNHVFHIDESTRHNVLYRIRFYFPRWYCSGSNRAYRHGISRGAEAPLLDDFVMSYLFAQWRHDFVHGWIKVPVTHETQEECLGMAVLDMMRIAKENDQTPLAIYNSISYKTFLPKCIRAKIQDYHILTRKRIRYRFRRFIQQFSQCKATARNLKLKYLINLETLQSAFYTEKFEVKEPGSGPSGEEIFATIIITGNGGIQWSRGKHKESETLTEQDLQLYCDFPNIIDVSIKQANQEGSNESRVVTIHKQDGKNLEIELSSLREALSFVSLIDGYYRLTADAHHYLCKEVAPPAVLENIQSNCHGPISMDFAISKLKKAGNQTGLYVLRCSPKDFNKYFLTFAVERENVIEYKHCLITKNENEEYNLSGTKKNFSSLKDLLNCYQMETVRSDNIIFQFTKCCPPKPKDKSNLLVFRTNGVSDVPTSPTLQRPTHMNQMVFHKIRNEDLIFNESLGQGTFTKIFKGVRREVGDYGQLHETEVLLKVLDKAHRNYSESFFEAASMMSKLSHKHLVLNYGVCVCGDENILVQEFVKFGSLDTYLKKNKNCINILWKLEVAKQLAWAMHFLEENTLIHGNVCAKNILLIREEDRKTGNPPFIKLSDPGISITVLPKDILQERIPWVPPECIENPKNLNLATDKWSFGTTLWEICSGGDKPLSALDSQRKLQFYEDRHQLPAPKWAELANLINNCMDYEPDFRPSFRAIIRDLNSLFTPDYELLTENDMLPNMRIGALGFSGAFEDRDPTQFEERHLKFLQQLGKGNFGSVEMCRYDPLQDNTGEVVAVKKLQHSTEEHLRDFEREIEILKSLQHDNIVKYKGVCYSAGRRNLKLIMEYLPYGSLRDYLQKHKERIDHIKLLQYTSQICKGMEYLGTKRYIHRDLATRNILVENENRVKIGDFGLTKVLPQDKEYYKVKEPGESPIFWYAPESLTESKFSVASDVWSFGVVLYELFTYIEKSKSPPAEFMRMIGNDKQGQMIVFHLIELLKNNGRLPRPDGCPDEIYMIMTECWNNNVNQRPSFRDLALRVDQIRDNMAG

As to `N#CC[C@H](C1CCCC1)n1cc(-c2ncnc3[nH]ccc23)cn1` [Ruxolitinib, reference compound], the IC50 in the experiment on TF-1 turned out to be 0.32 µM; in the experiment with HEL92.1.7, 1.12 µM. For `CCS(=O)(=O)N1CC(CC#N)(n2cc(-c3ncnc4[nH]ccc34)cn2)C1` [Baricitinib, reference compound], at JAK2, the IC50 was 5.9 nM.
